# Screening data as filed in PubChem BioAssay.
# Compounds with a hit are over-represented: about 2.1% of the library has one in this group of screens.
# ERp5 block = inhibitors of ERp5-driven insulin aggregation, primary screen, biochemical, turbidity, absorbance 650 nm, single point; 90 min; AID 651711, 2012; actives 0.05% (n = 350,000); Protein disulfide-isomerase A6 (Homo sapiens), Q15084; inhibition, % at 9.99 µM;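 active = mean replicate inhibition above about 25%, with every replicate also reaching it, limit read from the data, passing the limit was not always enough; inconclusive = only one of those two criteria met; inactive = neither criterion met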
# SMARCA2 act = SMARCA2 (BRM) function activators, primary screen, cell-based, luminescence, high throughput; actives 1% (n = 370,000); activation, % at 9.1 µM; MG213 cells, MMTV-luciferase reporter, dexamethasone, overnight; AID 652017, 2013; in the data active = activation above about 7.8%
# PDI inh = inhibitors of human PDI, primary screen, biochemical, turbidity, single point, plate reader; PDI insulin aggregation turbidity, A650, 90 min; inhibition, % at 10 µM; actives 0.052% (n = 350,000);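 active = mean inhibition across replicates of 30% or more, whatever share of single replicates reach that level; inconclusive = mean inhibition below 30% while every single replicate reaches 30%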
# UUG fidelity = modulators of start codon recognition fidelity in yeast; AID 602363; activity score, % at 18.7 µM; S. cerevisiae UUG-firefly luciferase reporter, luminescence/redox ratio; 0.13% of 350,000 active;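 active = replicate mean at a twofold rise or more, about +100% in these data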;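 note: firefly luciferase made from a UUG start codon reports start codon fidelity; reporter light over untreated wells divided by growth signal over untreated wells; some hits fall short of that in this replicate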
# INS-1E GSIS act = GLuc luminescence reporter in INS-1E cells, primary screen for activators of glucose-dependent secretion of insulin | INS-1E GLuc reporter insulin secretion, 2-3 h | activation, % at 16.6 µM | actives 0.61% (n = 370,000) | AID 743287, 2014;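 active = lowest replicate activation of at least 40%, so every replicate reaches that level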
# Rev-erbA mod = modulators of Rev-erb alpha DNA binding, primary screen, biochemical, FITC-DNA, fluorescence polarization, uHTS. Nuclear receptor subfamily 1 group D member 1 (Homo sapiens), P20393. Rev-erbα–FITC-DNA binding, 90 min. activity, % at 10 µM. actives 0.79% (n = 370,000). AID 1259318, 2017;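 active = activity above about 14%, limit read from the data; passing the limit was not always enough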
# SMARCA2 conf = SMARCA2 (BRM) function activators, confirmation, cell-based, luminescence, triplicate. shares compounds with SMARCA2 act. MG213 cells, MMTV-luciferase with dexamethasone, overnight; MG213 cells expressing E1A, Rb sequestered; DMSO wells 0%, reference activator 100%. activation, % at 9.1 µM. actives 30% (n = 3,500). AID 652260, 2013;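 active = activation above its plate's cutoff, the mean activation of tested wells plus 3 SD, cut at about 7.9% in these data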
# VP16 Luc act = GAL4-VP16 luciferase reporter activation, counter-screen for SMARCA2 (BRM) activator project, cell-based, pG5luc, luminescence, high throughput. shares compounds with SMARCA2 act. HEK293 GAL4-VP16 pG5luc reporter; scaled: DMSO wells 0%, SAHA wells 100%. activation, % at 9.1 µM. actives 41% (n = 3,500);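 active = activation above the solvent-only control well mean plus 3 SD, averaged across control plates, cut at about 5.2% in these data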
# Hits are given with their value; i = inactive; ? = inconclusive; nt = no result given.
SMILES,ERp5 block,SMARCA2 act,PDI inh,UUG fidelity,INS-1E GSIS act,Rev-erbA mod,SMARCA2 conf,VP16 Luc act
COc1ccc(C(=O)/C(=C\c2ccco2)N2C=CC=CC2=C(C#N)C#N)cc1,nt,nt,i,i,nt,nt,nt,nt
CO[C@@H]1CN(C)C(=O)c2ccc(NC(=O)C3CCCC3)cc2OC[C@H](C)NC[C@H]1C,i,nt,nt,i,i,nt,nt,nt
CC(=O)Nc1ccc(NCN2C(=O)[C@@H]3[C@H]4CC[C@H](C4)[C@@H]3C2=O)cc1,nt,8.9,i,nt,i,i,i,i
O=C1C2C3CCC(C3)C2C(=O)N1CNc1ccccc1 (stereo not drawn),nt,i,i,nt,i,i,nt,nt
CN1CCN(c2ccc(-c3cccc(NC(=O)COc4ccccc4)c3)nn2)CC1,i,8.4,i,i,i,i,i,12.5
CN1CCN(c2ccc(-c3cccc(NC(=O)COc4ccc(Cl)cc4)c3)nn2)CC1,i,i,i,i,i,i,nt,nt
COc1cccc(C(=O)Nc2cccc(-c3ccc(N4CCOCC4)nn3)c2)c1OC,i,12.1,i,i,i,i,10.6,15.4
COc1ccc(C(=O)Nc2cccc(-c3ccc(N4CCOCC4)nn3)c2)cc1OC,i,i,i,i,i,i,nt,nt
Cc1noc(C)c1NC(=O)N[C@H]1CC[C@@H](CC(=O)Nc2ccc(-c3ccccc3)cc2)O[C@@H]1CO,i,nt,nt,i,i,nt,nt,nt
CCC(C)Nc1nc(C)nc2c1nnn2Cc1ccccc1 (stereo not drawn),nt,8.0,nt,nt,nt,i,i,i
COc1cc(C(=O)c2ccc3c(c2)OCO3)cc(OC)c1OC,?,i,i,i,i,i,nt,nt
COc1cc(C(=O)c2cocc2C(=O)c2ccc3c(c2)OCO3)cc(OC)c1OC,i,9.0,i,i,i,i,i,6.3
CNC(=O)NC(=S)NC(=O)c1ccc(OC)cc1,nt,10.5,i,i,nt,i,i,i
Cc1ccc(C(=O)N/C(=C/c2ccco2)C(=O)NCC2CCCO2)cc1 (stereo not drawn),nt,9.9,i,nt,i,i,i,i
COc1ccc(C(=O)NC(=S)NCC2CCCO2)cc1 (stereo not drawn),nt,10.7,i,i,i,i,i,i
COc1ccc(C(=O)NC(=S)NNC(=O)c2cnccn2)cc1,nt,33.5,i,i,i,i,i,i
O=C(NC(=S)NNC(=O)c1cnccn1)c1ccc(Cl)cc1,i,i,i,nt,nt,i,nt,nt
CC(C)(C)c1ccc(C(=O)NC(=S)NCC2CCCO2)cc1 (stereo not drawn),i,i,i,nt,i,i,nt,nt
CN1[C@@H]2c3ccc(-c4ccccc4F)c(=O)n3C[C@@H]2[C@@H](CO)[C@@H]1C(=O)NCc1ccc(F)cc1,i,nt,nt,nt,i,nt,nt,nt
O=C(C[C@@H]1C=C[C@@H](NS(=O)(=O)c2ccccc2)[C@H](CO)O1)NCc1ccc(Cl)c(Cl)c1,i,nt,nt,nt,i,nt,nt,nt
Cc1ccc(S(=O)(=O)Nc2ccc3c(c2)C(=O)N([C@@H](C)CO)C[C@H](C)[C@@H](CN(C)C(=O)c2ccncc2)OCCCC[C@@H](C)O3)cc1,nt,nt,nt,i,i,nt,nt,nt
COc1ccc(/C(O)=C2/C(=O)C(=O)N(c3ccccn3)C2c2ccc(F)cc2)cc1 (stereo not drawn),i,11.3,i,i,nt,i,i,i
COc1ccc(NC(=O)c2cc3ccccn3n2)cc1,i,10.3,nt,i,i,i,i,11.6
O=C(NCCc1ccc(F)cc1)c1cc2ccccn2n1,nt,16.5,nt,nt,nt,i,i,7.3
O=C(NCc1ccc(Cl)cc1)c1cc2ccccn2n1,i,i,nt,i,i,i,nt,nt
SMILES,ERp5 block,SMARCA2 act,PDI inh,UUG fidelity,INS-1E GSIS act,Rev-erbA mod,SMARCA2 conf,VP16 Luc act
C[C@H](CO)N1C[C@H](C)[C@@H](CN(C)Cc2ccc(Oc3ccccc3)cc2)Oc2ccc(NC(=O)Nc3ccc(C(F)(F)F)cc3)cc2CC1=O,nt,nt,nt,i,i,nt,nt,nt
COc1ccc(C2CC(=O)N(C)c3ccccc3S2)cc1OC (stereo not drawn),i,10.3,i,nt,nt,i,11.9,9.6
COc1ccc(C2CC(=O)N(CC(=O)NCC3CCCO3)c3ccccc3S2)cc1OC (stereo not drawn),i,i,i,i,i,i,nt,nt
CC(C)NC(=O)[C@@]1(C)c2ccccc2C(=O)N(Cc2ccc(OC(F)(F)F)cc2)[C@H]1c1ccc(CO)cc1,i,nt,nt,i,nt,nt,nt,nt
O=C(Cn1cc(SCc2cccc(Cl)c2)c2ccccc21)N1CCOCC1,nt,18.4,i,i,i,i,i,5.4
Cc1cc(C)cc(NC(=O)CCN2CC(C)OC(C)C2)c1 (stereo not drawn),nt,8.4,i,i,nt,i,i,i
Cc1ccc2nc(-c3ccc(N4C(=O)CC(N5CCN(CCO)CC5)C4=O)cc3)sc2c1 (stereo not drawn),nt,8.6,i,nt,i,i,i,i
CCN(CC(=O)Nc1cccc(OC)c1)C(=O)c1ccc(C)s1,nt,8.2,i,i,nt,i,i,i
CCS(=O)(=O)Nc1ccc2c(c1)C(=O)N(C)C[C@H](OC)[C@H](C)CN(CCC(F)(F)F)[C@@H](C)CO2,i,nt,nt,nt,i,nt,nt,nt
COc1ccc(C(=O)N/N=C/c2ccc(N3CCOCC3)s2)cc1OC,i,8.4,i,i,i,i,i,i
C[C@H]1CCCCO[C@H](CN(C)C(=O)Nc2ccc(F)cc2)[C@@H](C)CN([C@@H](C)CO)C(=O)c2cc(NS(=O)(=O)c3cccs3)ccc2O1,i,nt,nt,i,i,nt,nt,nt
C[C@H]1CN([C@@H](C)CO)C(=O)c2cccc(NS(=O)(=O)c3ccc(Cl)cc3)c2O[C@@H]1CN(C)S(=O)(=O)c1cn(C)cn1,nt,nt,nt,nt,i,nt,nt,nt
CCN(CC)C(=O)c1cc2c(=O)c3cc(F)ccc3oc2nc1C,i,9.6,i,i,i,i,i,i
CC(=O)c1cc2c(=O)c3ccccc3oc2nc1C,nt,i,i,i,nt,i,nt,nt
CN1CCN(c2ccc(Nc3ccnc4cc(Cl)ccc34)cc2)CC1,i,16.2,i,i,i,i,28.3,i
CCOc1ccc(Nc2ccnc3cc(Cl)ccc23)cc1,i,i,i,i,i,i,nt,nt
CN(C)C(=O)c1cccc(-c2ccc3c(c2)[C@H]2[C@H](CCN2C(=O)C2CCCC2)[C@@H](CO)N3)c1,i,nt,nt,nt,i,nt,nt,nt
O=C1CCC(C(=O)N2CCC(CO)CC2)CN1Cc1ccc(Cl)cc1 (stereo not drawn),i,i,i,i,i,i,nt,nt
COCC1CCN(C(=O)C2CCC(=O)N(Cc3ccc(Cl)cc3)C2)CC1 (stereo not drawn),i,8.3,i,i,i,i,i,i
